The values below are quoted from earlier work in US20190072541A1, “BIOMARKERS FOR TREATMENT OF ALOPECIA AREATA” (THE TRUSTEES OF COLUMBIA UNIVERSITY IN THE CITY OF NEW YORK, priority 2015, published 2019).

Molecules are shown by their SMILES.

The test system of the series is JAK1, JAK2, JAK3, Tyk2. To be noted: rank order of kinases; cited from earlier work.

`C[C@@H]1CCN(C(=O)CC#N)C[C@@H]1N(C)c1ncnc2[nH]ccc12` [tofacitinib]: the JAK selectivity result was “JAK3>JAK1>>JAK2”.
